Data reported in PubChem BioAssay AID2101 (National Center for Advancing Translational Sciences (NCATS), 2009).
Only a part is listed here, and it is no random draw. Inconclusive results are not listed. Active and inactive are the calls of the source. Calls come from the whole dose curve; as a rule, active = well fitted inhibition curve with a large enough effect; inconclusive = small, poorly fitted or top-dose-only effect, or effect the other way, or another doubt; inactive = no such curve, though single readings can be large or run the other way.

These compounds were tested against Lysosomal acid glucosylceramidase (Homo sapiens) (UniProt P04062) (assay: qHTS Assay for Inhibitors and Activators of N370S glucocerebrosidase as a Potential Chaperone Treatment of Gaucher Disease). Conditions: N370S GC spleen homogenate, 4MU-glucoside fluorescence; at 59.4 µM (top of the series) unless noted.
Description: NIH Chemical Genomics Center [NCGC]
NIH Molecular Libraries Probe Production Centers Network [MLPCN]
Assay Submitter (PI): Wei Zheng
Glucocerebrosidase (GC) catalyzes the hydrolysis of beta-glucocerebroside to glucose and ceramide in lysosomes. Mutations in the glucocerebrosidase gene result in Gaucher disease, an autosomal recessive lysosomal storage disorder. Many of the mutations encountered in patients with Gaucher disease are missense alterations that may cause misfolding, decreased stability and/or mistrafficking of this lysosomal protein. […] These inhibitors include iminosugar analogs and three non-iminosugar inhibitors identified from a previous HTS of 62,000 compounds with the wild type recombinant enzyme. However, the enhancement of enzyme activity by the chaperone action of an enzyme inhibitor must be balanced against the direct inhibition of the enzyme. An enzyme activator could also function as a chaperone by binding to the enzyme and helping to correct its misfolding and mistrafficking. While activators for GC have not yet been identified, they may have better therapeutic potential than inhibitors. Therefore the discovery and development of chemical activators may provide a new strategy for the chaperone therapy.
We have optimized a new assay using N370S mutant GC derived from the spleen of a Gaucher patient. […] In addition, the MLPCN compound library has expanded, which increases the chance of finding new and better probes.
NCGC Assay Protocol Summary:
This is a fluorogenic enzyme assay with 4-methylumbelliferyl-beta-D-glucopyranoside as the substrate and N370S glucocerebrosidase from human spleen homogenate as the enzyme preparation. Upon the hydrolysis of this fluorogenic substrate, the resulting product, […] which can be detected by a standard fluorescence plate reader. Data were normalized to the controls for basal activity (without enzyme) and 100% activity (with enzyme). The AC50 values were determined from concentration-response data modeled with the standard Hill equation.
Assay buffer: 50 mM citric acid (titrated with potassium phosphate to pH 5.0), 100 mM potassium chloride, 10 mM sodium chloride, 1 mM magnesium chloride, 0.01% Tween-20.
1536-well assay protocol:
(1) Add 2 ul/well of spleen homogenate (27 ug final)
(2) Add 23 nL compounds in DMSO solution. The final titration was 0.5 nM to 58 uM.
(3) Add 2 ul of substrate (1 mM final)
(4) Incubate at 37C for 40 min.
(5) Add 2 ul stop solution (1M NaOH and 1M Glycine mixture, pH 10)
(6) Detect the assay plate in a ViewLux plate reader (PerkinElmer) with Ex=365 nm and Em=440nm.
Keywords: Glucocerebrosidase, beta-glucosidase, Gaucher Disease, pharmacological chaperone, chaperone therapy, high throughput screening, glucocerebrosidase inhibitor, MLSMR, MLSCN, NIH Roadmap, qHTS and NCGC
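Note: 0% = full enzyme activity and -100% = no enzyme basal.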

| SMILES | activity change, negative = inhibition |
| --- | --- |
| CCOC(=O)c1ccc(NP(C)(=O)Oc2ccc(OC)cc2)cc1 (stereo not given) | inactive: 0.538% |
| CCOP(C)(=S)SCC(=O)NC(C)C(=O)O (stereo not given) | inactive: -5.83% |
| CP(=O)(Nc1ccccn1)Oc1ccc(Cl)cc1 (stereo not given) | inactive: 5.89% |
| CP(=O)(Nc1ccc(SC(F)(F)F)cc1)Oc1ccc(Cl)cc1 (stereo not given) | inactive: 6.05% |
| Cc1cccc(C)c1OP(C)(=O)Nc1ccc(SC(F)(F)F)cc1 (stereo not given) | inactive: -10.9% |
| CP(=O)(Oc1ccccc1)OC(c1ccccc1)C(F)(F)F (stereo not given) | inactive: -2.02% |
| CP(=O)(NC(=O)Nc1ccccc1)Oc1ccccc1 (stereo not given) | inactive: -5.29% |
| CCc1ccc(OP(C)(=O)N2CCN(c3ccc([N+](=O)[O-])cc3)CC2)cc1 (stereo not given) | inactive: -18.5% |
| Cc1cc(C)cc(OP(C)(=O)Nc2ccc(SC(F)(F)F)cc2)c1 (stereo not given) | inactive: 10.8% |
| CP(=S)(Nn1cnnc1)Oc1ccccc1 (stereo not given) | inactive: -0.611% |
| CP(=O)(Nc1ccccc1Br)Oc1ccccc1 (stereo not given) | inactive: 5.61% |
| COc1ccccc1OP(C)(=O)Nc1ccccc1 (stereo not given) | inactive: -1.73% |
| COc1ccccc1OP(C)(=O)Nc1ccc(C)cc1 (stereo not given) | inactive: 4.46% |
| Cc1ccc(NP(C)(=O)Oc2ccccc2)c(C)c1 (stereo not given) | inactive: 29% |
| CCOC(=O)c1ccc(NP(C)(=O)Oc2ccccc2)cc1 (stereo not given) | inactive: 12.4% |
| Cc1cc(C)cc(OP(C)(N)=O)c1 (stereo not given) | inactive: 10.3% |
| COc1ccccc1OP(C)(=O)Nc1cc(Cl)ccc1C (stereo not given) | inactive: -0.343% |
| COc1ccc(OP(C)(=O)Nc2cccc(F)c2)cc1 (stereo not given) | inactive: 5.9% |
| O=C(O)C1(O)c2ccccc2-c2ccccc21 | inactive: -0.309% |
| O=[N+]([O-])c1cc([N+](=O)[O-])c(Nc2cccnc2)c([N+](=O)[O-])c1 | inactive: -15.5% |
| O=[N+]([O-])c1ccc2c(c1)C=Nc1ccccc1O2 | inactive: -2.48% |
| CC(C)(C)c1ccc(OP(C)(=O)Nc2ccc(SC(F)(F)F)cc2)cc1 (stereo not given) | inactive: 24.2% |
| Cc1cccc(C)c1OP(C)(N)=O (stereo not given) | inactive: 1.46% |

| SMILES | activity change, negative = inhibition |
| --- | --- |
| O=C(O)C(O)(c1ccccc1)c1ccccc1 | inactive: -6.16% |
| O=[N+]([O-])[O-].[NH4+] | inactive: 10.2% |
| CCN(CC)CCCOC(=O)C(O)(c1ccccc1)c1ccccc1 | inactive: -15.7% |
| Cc1ccc(C)c(NP(C)(=O)Oc2ccccc2)c1 (stereo not given) | inactive: 0.464% |
| Cc1cc(C)cc(OP(C)(=O)Nc2ccccn2)c1 (stereo not given) | inactive: 12.3% |
| CP(=O)(Nc1cccc(Br)c1)Oc1ccccc1 (stereo not given) | inactive: 1.19% |
| COc1ccccc1OP(C)(=O)Nc1cccc(Br)c1 (stereo not given) | inactive: -1.7% |
| CCOC(=O)c1ccc(NP(C)(=O)Oc2cc(C)cc(C)c2)cc1 (stereo not given) | inactive: 14.7% |
| Cc1cc(C)cc(OP(C)(=O)Nc2ccc(C)cc2C)c1 (stereo not given) | inactive: -12.2% |
| O=[N+]([O-])OCC(CO[N+](=O)[O-])(CO[N+](=O)[O-])CO[N+](=O)[O-] | inactive: 13.7% |
| Cc1ccc([N+](=O)[O-])cc1[N+](=O)[O-] | inactive: 1.83% |
| O=[N+]([O-])c1cccc([N+](=O)[O-])c1 | inactive: 6.72% |
| CN1CCCCC1COC(=O)C1(O)c2ccccc2CCc2ccccc21 (stereo not given) | inactive: -11.2% |
| COc1ccccc1OP(C)(=O)Nc1c(C)cccc1C (stereo not given) | inactive: 7.01% |
| CCCOc1ccc(NP(C)(=O)Oc2ccc(Cl)cc2)cc1 (stereo not given) | inactive: -10.4% |
| CP(=O)(Nc1ccc(SC(F)(F)F)cc1)Oc1ccccc1 (stereo not given) | inactive: -12% |
| CC1=C2N=C(C=C3N=C(C(C)=C4[N-][C@@](C)([C@@H]5N=C1[C@](C)(CCC(=O)NC[C@@H](C)OP(=O)([O-])O[C@H]1[C@@H](O)[C@@H](n6cnc7cc(C)c(C)cc76)O[C@@H]1CO)[C@H]5CC(N)=O)[C@@](C)(CC(N)=O)[C@@H]4CCC(N)=O)[C@@](C)(CC(N)=O)[C@@H]3CCC(N)=O)C(C)(C)[C@@H]2CCC(N)=O.[C-]#N.[Co+3] | inactive: -8.48% |
| O=[N+]([O-])c1cc([N+](=O)[O-])c(Nc2nnnn2CCO)c([N+](=O)[O-])c1 | inactive: -12.9% |
| Cc1nc2ccc3ccccc3c2s1.O=[N+]([O-])c1cc([N+](=O)[O-])c(O)c([N+](=O)[O-])c1 | inactive: 0.901% [at 2.35 µM] |
| O=[N+]([O-])c1cc([N+](=O)[O-])c(-n2nnc3ccccc32)c([N+](=O)[O-])c1 | inactive: -3.92% |
| CC(C)N(CCCl)C(C)C | inactive: -2.98% |
| CP(=O)(Nc1ccc2c(c1)OCCO2)Oc1ccccc1 (stereo not given) | inactive: 0.0407% |
| Cc1ccccc1NP(C)(=O)Nc1ccccc1C | inactive: 4.07% |

| SMILES | activity change, negative = inhibition |
| --- | --- |
| CCN(CCCl)Cc1ccccc1C | inactive: 27.8% |
| [NH4+].[O-][Cl+3]([O-])([O-])[O-] | inactive: 7.09% |
| CP(=O)(Nc1ccc(SC(F)(F)F)cc1)Oc1ccc(F)cc1 (stereo not given) | inactive: -5.87% |
| CCOP(C)(=S)SCC(=O)NC(C)(CC)C(=O)O (stereo not given) | inactive: 1.91% |
| CCOP(=O)(CC)OCC | inactive: -5.72% |
| Cc1c([N+](=O)[O-])cccc1[N+](=O)[O-] | inactive: 8.73% |
| Cc1ccc([N+](=O)[O-])c([N+](=O)[O-])c1 | inactive: -1.8% |
| Cc1cc(-c2cccc3ccccc23)c(C)cn1.O=[N+]([O-])c1cc([N+](=O)[O-])c(O)c([N+](=O)[O-])c1 | inactive: -13.4% |
| COc1ccc(OP(C)(=O)Nc2cccc(Br)c2)cc1 (stereo not given) | inactive: 1.88% |
| CN(C)CCOC(=O)C(O)(c1ccccc1)C1CCCCC1 (stereo not given) | inactive: -4.15% |
| COc1ccc(NP(C)(=O)Oc2ccccc2OC)cc1 (stereo not given) | inactive: -0.289% |
| CCN(CC)CCCOC(=O)C(O)(c1ccccc1)C1CCCCC1 (stereo not given) | inactive: -0.934% |
| CP(=O)(Nc1ccccc1)Oc1ccc(F)cc1 (stereo not given) | inactive: -7.81% |
| CCCCCOc1ccc(NP(C)(=O)Oc2ccc(Cl)cc2Cl)cc1 (stereo not given) | inactive: -11% |
| CCC(C)(OO)OOC(C)(CC)OO (stereo not given) | inactive: 10.6% |
| Cc1cccc([N+](=O)[O-])c1[N+](=O)[O-] | inactive: 1.85% |
| CCOC(=O)c1ccc(NP(C)(=O)Oc2ccc(F)cc2)cc1 (stereo not given) | inactive: 6.33% |
| COc1ccc(OP(C)(=O)Nc2ccc(SC(F)(F)F)cc2)cc1 (stereo not given) | inactive: -12.3% |
| O=C(OCCN1CCN(CCOCc2ccccc2)CC1)C(O)(c1ccccc1)c1ccccc1 | inactive: 22.1% |
| CP(=O)(Nc1ccccc1F)Oc1ccccc1 (stereo not given) | inactive: -9.67% [at 2.35 µM] |
| CC(C)c1ccc(OP(C)(=O)Nc2ccc(SC(F)(F)F)cc2)cc1 (stereo not given) | inactive: 0.379% |
| Cc1c(NP(C)(=O)Oc2ccc(C(C)C)cc2)c(=O)n(-c2ccccc2)n1C (stereo not given) | inactive: 7.97% |
| O=[N+]([O-])c1cc([N+](=O)[O-])c(Nc2ccccn2)c([N+](=O)[O-])c1 | inactive: -5.64% |

| SMILES | activity change, negative = inhibition |
| --- | --- |
| CP(=O)(Nc1ccccn1)Oc1ccccc1 (stereo not given) | inactive: -10.7% |
| COc1ccccc1OP(C)(=O)Nc1ccc(C)cc1C (stereo not given) | inactive: -0.409% |
| CCc1ccc(OP(C)(=O)O)cc1 | inactive: 9.1% |
| COc1ccccc1OP(C)(=O)Nc1ccc(Br)cc1 (stereo not given) | inactive: -0.0447% |
| CN(C)CCOC(=O)C(O)(c1ccccc1)C1CCCC1 (stereo not given) | inactive: 1.37% |
| Cc1nc2ccc3ccccc3c2o1.O=[N+]([O-])c1cc([N+](=O)[O-])c(O)c([N+](=O)[O-])c1 | inactive: -12.7% |
| CP(=O)(OCCOc1ccccc1)OCCOc1ccccc1 | inactive: 3.38% |
| Cc1cc(C)cc(OP(C)(=O)Nc2cccc(C(F)(F)F)c2)c1 (stereo not given) | inactive: 11.2% |
| C/C1=C2N=C(/C=C3N=C(/C(C)=C4\[N-][C@@](C)([C@H]5N=C1[C@@](C)(CCC(=O)NC[C@H](C)OP(=O)([O-])O[C@@H]1[C@H](O)[C@H](n6cnc7cc(C)c(C)cc76)O[C@@H]1CO)[C@@H]5CC(N)=O)[C@](C)(CC(N)=O)[C@H]4CCC(N)=O)[C@@](C)(CC(N)=O)[C@@H]\3CCC(N)=O)C(C)(C)[C@@H]/2CCC(N)=O.[C-]#N.[Co+3] | inactive: 10.9% [at 21.6 µM] |
| CCOC(=O)c1ccc(NP(C)(=O)Oc2ccc(Cl)cc2)cc1 (stereo not given) | inactive: -15.2% |
| COc1ccccc1OP(C)(=O)Nc1ccccc1Br (stereo not given) | inactive: 7.57% |
| CC(C)(C)c1ccc(OP(C)(=O)O)cc1 | inactive: 7.1% |
| CP(=O)(Nc1ccc(Cl)cc1)Oc1ccc(F)cc1 (stereo not given) | inactive: -6.42% |
| CN(C)C(=O)c1c([N+](=O)[O-])cc([N+](=O)[O-])cc1[N+](=O)[O-] | inactive: 6.86% |
| CCN(CC)CC(O)COC(=O)C(O)(c1ccccc1)C1CCCCC1 (stereo not given) | inactive: 2.81% |
| COc1ccc(OP(C)(=O)Nc2ccc(Br)cc2)cc1 (stereo not given) | inactive: -6.52% |
| COc1ccccc1OP(C)(=O)Nc1c(C)n(C)n(-c2ccccc2)c1=O (stereo not given) | inactive: 8.91% |
| O=C(OCCCN1CCCC1)C(O)(c1ccccc1)C1CCCCC1 (stereo not given) | inactive: -13% |
| OCCSCCO | inactive: 1.21% |
| CP(=O)(Oc1ccccc1)N1CCOC1=O (stereo not given) | inactive: 7.24% [at 2.35 µM] |
| CCc1ccc(OP(C)(=O)Nc2cccnc2)cc1 (stereo not given) | inactive: -24.5% |
